The text below walks through data of patent US6988446B2, “Purified nitric oxide synthase” (priority 1996, dated 2006).

Chains of the proteins cited; added tags and fusions are not shown.
UniProt P29476, whole entry: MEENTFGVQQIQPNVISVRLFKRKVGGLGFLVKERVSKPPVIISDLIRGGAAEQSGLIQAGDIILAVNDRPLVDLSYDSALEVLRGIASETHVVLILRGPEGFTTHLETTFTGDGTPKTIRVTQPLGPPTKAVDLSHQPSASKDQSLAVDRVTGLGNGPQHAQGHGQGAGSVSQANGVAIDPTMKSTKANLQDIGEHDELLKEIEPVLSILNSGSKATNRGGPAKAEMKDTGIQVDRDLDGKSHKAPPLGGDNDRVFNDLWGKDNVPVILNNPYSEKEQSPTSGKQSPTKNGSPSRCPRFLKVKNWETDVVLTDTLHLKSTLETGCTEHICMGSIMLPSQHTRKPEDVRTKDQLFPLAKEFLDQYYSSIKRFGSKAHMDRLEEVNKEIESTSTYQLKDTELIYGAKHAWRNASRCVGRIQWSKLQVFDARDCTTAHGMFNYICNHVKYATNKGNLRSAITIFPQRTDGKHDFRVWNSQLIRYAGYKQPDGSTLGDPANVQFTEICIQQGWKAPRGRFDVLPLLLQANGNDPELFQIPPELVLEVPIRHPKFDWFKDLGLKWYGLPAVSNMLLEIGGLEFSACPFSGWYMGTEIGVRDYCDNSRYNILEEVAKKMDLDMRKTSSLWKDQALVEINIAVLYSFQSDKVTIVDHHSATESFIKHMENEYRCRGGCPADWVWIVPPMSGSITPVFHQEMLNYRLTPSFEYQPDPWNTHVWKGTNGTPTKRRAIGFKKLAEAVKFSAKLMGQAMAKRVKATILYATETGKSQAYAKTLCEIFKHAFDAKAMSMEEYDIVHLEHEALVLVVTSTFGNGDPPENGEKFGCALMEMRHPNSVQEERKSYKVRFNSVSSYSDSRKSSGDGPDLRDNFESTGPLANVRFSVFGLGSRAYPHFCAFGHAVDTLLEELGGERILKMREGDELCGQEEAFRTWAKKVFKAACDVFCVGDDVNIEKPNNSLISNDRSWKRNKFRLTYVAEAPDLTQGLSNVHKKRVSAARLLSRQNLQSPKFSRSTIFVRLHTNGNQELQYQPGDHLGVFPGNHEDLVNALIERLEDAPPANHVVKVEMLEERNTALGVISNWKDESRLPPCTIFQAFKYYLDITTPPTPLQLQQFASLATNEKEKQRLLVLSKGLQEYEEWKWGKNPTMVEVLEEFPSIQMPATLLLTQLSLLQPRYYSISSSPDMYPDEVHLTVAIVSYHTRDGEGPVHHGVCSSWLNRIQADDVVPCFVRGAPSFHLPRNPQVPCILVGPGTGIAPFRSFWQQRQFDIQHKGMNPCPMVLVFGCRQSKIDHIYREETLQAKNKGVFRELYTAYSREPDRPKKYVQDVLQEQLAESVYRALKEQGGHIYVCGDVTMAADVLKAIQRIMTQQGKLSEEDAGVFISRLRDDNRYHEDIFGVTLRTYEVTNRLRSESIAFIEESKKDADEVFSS

The target in this assay is nNOS-II (Rattus norvegicus, UniProt P29476). In words: Kinetic determinations (KM, Vmax, Ki) with the standard enzyme assay. As to conditions: substrate of nNOS-II, calmodulin added when L-arginine is substrate. The assay is classed as biochemical. As to the method: NOS Activity Assay: NOS activity was determined spectrophotometrically by the rapid and quantitative oxidation of oxyhemoglobin to methemoglobin (Feelish et al., Eur. J. Pharmacol. 139:19-30 (1987); Olken et al., Biochem. Biophys. Res. Commun. 177:828-833 (1991)).
Thus, reaction mixtures for NOS assays containing 50 mM Tris-HCl buffer (pH 7.5), were optimized to contain 4 μM oxyhemoglobin, 100 μM NADPH, 1 mM CaCl2, 10 μM FAD, 10 μM FMN, 20 μM BH4, 150 μM DTT, 100 μM BK or L-arginine and 0.1-3 μg enzyme in a final volume of 0.5 mL.
Thus, calmodulin (10 μg/mL) was added to the reaction mixtures when L-arginine was used as substrate.
Kinetic data were calculated by fitting experimental data to the EZ-FIT program (Perrella, Anal. Biochem. 174.437-447 (1988)).
NOS activity assay. NOS activity was determined spectrophotometrically by the rapid and quantitative oxidation of oxyhemoglobin to methemoglobin (10,11). Optimized reaction mixtures for NOS assays contained 50 mM Tris-HCl buffer (pH 7.5), and were optimized to contain 4 μM oxyhemoglobin, 100 μM NADPH, 1 mM CaCl2, 10 μM FAD, 10 μM FMN, 20 μM BH. 150 μM DTT, 100 μM BK or L-arginine and 0.1-3 μg enzyme in a final volume of 0.5 ml. Calmodulin (10 μg/ml) was added to the reaction mixtures when L-arginine was used as substrate.
Kinetic determinations. […] Kinetic data were calculated by fitting experimental data to EZ-FIT program (12).

Broadly, the Km is the substrate concentration at which the rate is half of its maximum. With “Cit^1-BK: synthetic nonapeptide in which the N-terminal arginine of BK is replaced with citrulline”, the “apparent Vmax” value is reported as 1.6 μmol/min/mg protein. Moreover, the Michaelis constant (Km) (read-out: apparent KM) came to 6.2 µM.
